Results: patent publication US20130210034A1, “COMPLEX PHOSPHOPROTEIN ACTIVATION PROFILES” (BECKMAN COULTER, INC., priority 2005, published 2013)

Legend:
[1] = tested on: pAKT; assay: Cytokine-stimulated phosphorylation in immunophenotypically defined cell populations from healthy donor BM (flow cytometry); type: cell-based, human; details: mean ± SD;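 for pAKT S/N ratio: Phosphoprotein MFI normalized to lymphocyte MFI as internal negative control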
Description: (§1) Bone marrow (BM) samples were collected in 7.5 mL Iscove's modified Dulbecco's medium (IMDM) supplemented with 100U penicillin, 0.01 mg/mL streptomycin, and 70 μg/mL heparin sodium salt from 10 patients undergoing hip replacement surgery, who were otherwise healthy. These patients were from a pool of surgery patients, age 49 to 77, and represented 7 female and 8 male patients. Wright Giemsa stained slides prepared from these samples were examined by Hematopathologist (AC) to confirm that no underlying hematological disorders were present. These BM samples were rinsed twice with IMDM to release cells, filtered using a 100 μm Nylon cell strainer to remove marrow particles, and centrifuged for at RT fro 7 minutes at 200 g. The cell pellet was washed twice with sterile IMDM to remove traces of fat and re-suspended in IMDM to a concentration of 3×10^7 cells/mL.
(§2) To assess the signal transduction response after growth factor simulation, a series comprising two sets of tubes including about 3×10^6 cells/100 μL were incubated at 37° C. for 30 minutes. After this pre-incubation period, tubes with then processes with either a stimulant or inhibitor. For signal stimulation, tubes were incubated at 2 minutes, 3.5 minutes, 7 minutes, 15 minutes, and 30 minutes with one of the following cytokines to stimulate protein phosphorylation: 10 ng/100 μL SCF, 50 ng/100 μL FL, 10 ng/100 μL GM-CSF, 10 ng/100 μL IL-3, or 10 ng/100 μL G-CSF. To examine the effects of protein phosphorylation inhibition, tubes were incubated with an inhibitor cocktail comprising 100 μM/100 μL UO126, 1 μM/100 μL LY294002, and 1 μM/100 μL rapamycin. One unstimulated tube receiving no stimulant or inhibitor was processed to assess basal levels of phospho-protein expression. After stimulation the cells were immediately fixed in 10% formaldehyde solution at 37° C. Pre-labeling with CD13, CD16 and CD64 antibodies was carried out 20 minutes prior to formaldehyde fixation. After fixation, one set of tubes was permeabilized without methanol for pAKT, pERK and pS6 staining and the other for 80% methanol permeabilized for pSTAT3 and pSTAT5 staining. After permeablization, the cells were washed in PBS with 2% BSA and blocked by re-suspended in 75 μL of PBS comprising 25% heat inactivated normal mouse serum, 25% normal rabbit serum. To stain cells with fluorescent conjugated monoclonal antibodies, samples were incubated on ice for 45 minutes in 100 μL of an antibody staining solution including either: 1) CD15-Pacific Orange, CD34-Phycoerythrin-Texas Red, CD117-Phycoerythrin-Cyanin 5.5, CD45-Allophycocyanin-Alexa Fluor 750 (or CD45-Pacific Orange, in which case CD15-Pacific Orange was omitted), pS6-Pacific Blue, pERK-Alexa Fluor 488 and pAKT-Alexa Fluor 647 or 2) CD15-Pacific Orange, CD34-Phycoerythrin-Texas Red, CD117-Phycoerythrin-Cyanin 5.5, CD45-Allophycocyanin-Alexa Fluor 750 or CD45-Pacific Blue, pSTAT3-Alexa Fluor 488 and pSTAT5-Phycoerythrin. The stained cells were washed twice with ice cold PBS containing 2% BSA and centrifuged at 800 g for 6 minutes at 4° C. The supernatant was discarded and cells re-suspended in 250 μL of chilled wash buffer for data acquisition. Stained cells were examined using either GALIOS flow cytometer (Beckman Coulter) or CYAN ADP (Beckman Coulter) equipped with 488 nm, 405 nm and 635 nm lasers to detect the degree of fluorescence. Data were analyzed using FCS Express (De Novo Software, CA) analysis software.
(§3) Specific phosphoprotein expression of pERK, pS6, pAKT, pSTAT5, and pSTAT3 was examined in seven discrete phenotypically defined populations based on 7-color immunophenotyping (FIG. 1). The percent of responding (phosphorprotein positive) cells for each of these populations was determined from individual single parameter histograms based on a fixed integration region set on the inhibitor treated control at about 3% positives. […]

[2] = tested on: pS6; assay: as above; type: cell-based, human; details: mean ± SD;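 for pS6 S/N ratio: Phosphoprotein MFI normalized to lymphocyte MFI as internal negative control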
Description: as §1, §2, §3

B1: Interleukin- 3 (protein, UniProt P08700 20-152, looked up)
Interleukin-3: APMTQTTPLKTSWVNCSNMIDEIITHLKQPPLPLLDFNNLNGEDQDILMENNLRRPNLEAFNRAVKSLQNASAIESILKNLLPCLPLATAAPTRHPIHIKDGDWNEFRRKLTFYLKTLENAQAQQTTLSLAIF
notes: colony-stimulating cytokine
- pAKT Percent (%) Responding Cells, Mean ([1]; CD34^+ (CD34^+/CD117^+ cells)): 11.8 ± 11.0%
- pAKT S/N ratio ([1]; CD34^+ (CD34^+/CD117^+ cells)): 1.8 ± 0.8
- pAKT Percent (%) Responding Cells, Mean ([1]; CD117^+ (CD34^−/CD117^+ cells)): 3.7 ± 4.0%
- pAKT S/N ratio ([1]; CD117^+ (CD34^−/CD117^+ cells)): 1.9 ± 1.0
- pAKT Percent (%) Responding Cells, Mean ([1]; G1, immature myeloid cells): 3.4 ± 3.4%
- pAKT S/N ratio ([1]; G1, immature myeloid cells): 2.5 ± 1.2
- pAKT Percent (%) Responding Cells, Mean ([1]; G2, intermediate myeloid cells): 5.3 ± 5.2%
- pAKT S/N ratio ([1]; G2, intermediate myeloid cells): 2.6 ± 1.1
- pAKT Percent (%) Responding Cells, Mean ([1]; G3, mature myeloid cells): 5.6 ± 4.1%
- pAKT S/N ratio ([1]; G3, mature myeloid cells): 2.9 ± 1.4
- pAKT Percent (%) Responding Cells, Mean ([1]; Mono, monocytes): 9.6 ± 14.6%
- pAKT S/N ratio ([1]; Mono, monocytes): 3.1 ± 1.7
- pS6 Percent (%) Responding Cells, Mean ([2]; CD34^+ (CD34^+/CD117^+ cells)): 33%
- pS6 S/N ratio ([2]; CD34^+ (CD34^+/CD117^+ cells)): 39.5 ± 31.2
- pS6 Percent (%) Responding Cells, Mean ([2]; CD34^+ (CD34^+/CD117^+ cells), listed as IL3): 50.7 ± 11.3%
- pS6 Percent (%) Responding Cells, Mean ([2]; CD117^+ (CD34^−/CD117^+ cells)): 33.2 ± 12.3%
- pS6 S/N ratio ([2]; CD117^+ (CD34^−/CD117^+ cells)): 60.3 ± 49.5
- pS6 Percent (%) Responding Cells, Mean ([2]; G1, immature myeloid cells): 2.7 ± 1.5%
- pS6 S/N ratio ([2]; G1, immature myeloid cells): 4.5 ± 2.4
- pS6 Percent (%) Responding Cells, Mean ([2]; G2, intermediate myeloid cells): 4.2 ± 3.3%
- pS6 S/N ratio ([2]; G2, intermediate myeloid cells): 4.1 ± 2.3
- pS6 Percent (%) Responding Cells, Mean ([2]; G3, mature myeloid cells): 5.5 ± 3.1%
- pS6 S/N ratio ([2]; G3, mature myeloid cells): 4.7 ± 2.6
- pS6 Percent (%) Responding Cells, Mean ([2]; Mono, monocytes): 71.4 ± 10.5%
- pS6 S/N ratio ([2]; Mono, monocytes): 26.0
- pS6 S/N ratio ([2]; Mono, monocytes, listed as IL3): 26.0 ± 21.0
